These results are taken from PubChem BioAssay (Tox21).

The chains behind the UniProt entries cited, without tags or fusion partners. Where a name states a change or a piece, a line headed by the entry shows the natural chain unless it says otherwise.
UniProt P04150: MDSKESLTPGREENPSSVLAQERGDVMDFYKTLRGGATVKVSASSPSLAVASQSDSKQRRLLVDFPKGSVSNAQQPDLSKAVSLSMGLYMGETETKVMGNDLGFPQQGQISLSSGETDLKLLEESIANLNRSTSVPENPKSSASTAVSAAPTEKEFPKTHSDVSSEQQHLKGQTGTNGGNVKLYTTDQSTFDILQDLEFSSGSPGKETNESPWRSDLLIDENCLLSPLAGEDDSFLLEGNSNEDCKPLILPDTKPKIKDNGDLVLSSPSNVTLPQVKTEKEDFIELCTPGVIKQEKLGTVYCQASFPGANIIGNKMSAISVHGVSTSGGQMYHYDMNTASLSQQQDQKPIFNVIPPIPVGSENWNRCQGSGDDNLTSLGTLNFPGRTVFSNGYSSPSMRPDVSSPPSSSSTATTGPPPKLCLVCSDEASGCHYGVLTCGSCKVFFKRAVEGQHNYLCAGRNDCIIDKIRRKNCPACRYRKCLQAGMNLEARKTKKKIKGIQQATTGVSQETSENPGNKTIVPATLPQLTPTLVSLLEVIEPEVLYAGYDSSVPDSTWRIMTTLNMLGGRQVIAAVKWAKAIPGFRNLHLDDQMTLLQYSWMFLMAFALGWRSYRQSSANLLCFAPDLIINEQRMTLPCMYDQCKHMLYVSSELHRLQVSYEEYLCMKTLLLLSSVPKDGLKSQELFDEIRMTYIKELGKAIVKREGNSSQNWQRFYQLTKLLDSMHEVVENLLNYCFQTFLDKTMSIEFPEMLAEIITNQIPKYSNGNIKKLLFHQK
UniProt P03372, whole entry, looked up: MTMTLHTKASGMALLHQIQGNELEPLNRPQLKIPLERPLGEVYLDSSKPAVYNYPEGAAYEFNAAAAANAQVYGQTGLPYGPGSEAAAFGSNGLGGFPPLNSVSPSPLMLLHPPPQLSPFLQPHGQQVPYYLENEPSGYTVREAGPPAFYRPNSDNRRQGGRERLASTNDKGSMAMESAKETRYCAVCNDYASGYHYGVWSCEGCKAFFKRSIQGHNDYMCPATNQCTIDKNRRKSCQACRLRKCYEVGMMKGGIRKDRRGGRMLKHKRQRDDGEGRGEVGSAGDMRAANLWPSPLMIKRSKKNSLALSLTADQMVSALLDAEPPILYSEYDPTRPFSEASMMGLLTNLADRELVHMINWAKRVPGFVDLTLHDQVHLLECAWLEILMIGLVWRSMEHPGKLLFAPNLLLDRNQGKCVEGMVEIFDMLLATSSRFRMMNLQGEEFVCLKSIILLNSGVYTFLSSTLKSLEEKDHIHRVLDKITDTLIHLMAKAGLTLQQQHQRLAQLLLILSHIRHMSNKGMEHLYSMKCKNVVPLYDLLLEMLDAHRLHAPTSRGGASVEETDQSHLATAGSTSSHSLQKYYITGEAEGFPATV
UniProt P10275: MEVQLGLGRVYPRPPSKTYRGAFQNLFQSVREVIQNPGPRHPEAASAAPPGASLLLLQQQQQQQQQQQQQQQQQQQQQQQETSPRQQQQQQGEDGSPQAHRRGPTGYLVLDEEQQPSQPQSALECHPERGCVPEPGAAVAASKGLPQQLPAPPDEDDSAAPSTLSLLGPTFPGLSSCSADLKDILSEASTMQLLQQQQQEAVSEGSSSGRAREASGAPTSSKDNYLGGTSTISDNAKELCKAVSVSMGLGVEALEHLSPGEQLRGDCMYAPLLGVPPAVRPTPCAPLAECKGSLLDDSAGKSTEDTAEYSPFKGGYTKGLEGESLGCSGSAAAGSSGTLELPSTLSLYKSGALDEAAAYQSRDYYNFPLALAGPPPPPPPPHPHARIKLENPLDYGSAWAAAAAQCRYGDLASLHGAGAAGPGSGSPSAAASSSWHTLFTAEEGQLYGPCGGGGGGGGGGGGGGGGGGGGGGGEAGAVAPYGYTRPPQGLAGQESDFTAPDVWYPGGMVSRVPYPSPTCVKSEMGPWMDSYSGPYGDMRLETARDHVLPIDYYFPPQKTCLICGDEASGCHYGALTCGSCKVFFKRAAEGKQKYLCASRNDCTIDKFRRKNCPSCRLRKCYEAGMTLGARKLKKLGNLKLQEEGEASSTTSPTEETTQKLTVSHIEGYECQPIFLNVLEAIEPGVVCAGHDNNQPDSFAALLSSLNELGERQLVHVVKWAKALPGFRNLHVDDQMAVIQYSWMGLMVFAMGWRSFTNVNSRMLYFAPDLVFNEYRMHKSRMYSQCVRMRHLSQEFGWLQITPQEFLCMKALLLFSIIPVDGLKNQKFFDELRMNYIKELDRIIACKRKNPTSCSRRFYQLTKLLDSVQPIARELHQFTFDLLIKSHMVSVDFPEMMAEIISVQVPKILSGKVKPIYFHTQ

Several values for one entry are separate records, joined by “and”; a condition that tells them apart may be missing. Equal values may be shown once. The list shows a part of the results, in another mix than the full data. Results filed as inconclusive are left out. Activity calls are given as the source filed them. Unless noted, calls come from the whole dose curve; as a rule, active = well fitted curve in the direction sought with a large enough effect in the repeat runs; inconclusive = weak or mixed curves; inactive = no such curve, though single readings can be large; an effect the other way counts as inactive or inconclusive.

Assay [1] can be described thus: qHTS assay to test for compound auto fluorescence at 460 nm (blue) in HepG2 cell free culture (AID 720685). As to conditions: Cell-free culture medium, blue autofluorescence 405/460 nm. The method in brief: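 Compound (23 nL) or DMSO pinned into cell-free MEM with 10% FBS; blue fluorescence read at 405/460 nm excitation/emission, expressed as auto-fluorescence equivalency to triamterene.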

A short description of assay [2]: qHTS assay to test for compound auto fluorescence at 535 nm (green) in HepG2 cell free culture (AID 720686). Conditions: Cell-free medium, green autofluorescence 485/535 nm. For orientation: Quantitative high-throughput screening tests each substance at several concentrations.
Assay [3] is described as follows: qHTS assay to test for compound auto fluorescence at 460 nm (blue) in HepG2 cells (AID 720687). As to conditions: autofluorescence 405/460 nm, 1 h. The method in brief: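 Cells (2,000/well in MEM with 10% FBS) attached overnight at 37 C, then were exposed to compound or DMSO for 1 hr at 37 C, 5% CO2. Fluorescence read at Ex/Em 405/460 nm, expressed as triamterene-equivalent signal.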

The target in assay [4] is Glucocorticoid receptor (Homo sapiens) (UniProt P04150). Kind of assay: qHTS assay to identify small molecule agonists of the glucocorticoid receptor (GR) signaling pathway (AID 720691; active = well fitted activation curve with a large enough effect in the signal ratio in the repeat runs, not every such curve was filed as active; the % refers to the signal ratio). As to conditions: GR-bla HeLa, beta-lactamase reporter ratio, 18 h; at 62.4 µM (top of the series) unless noted.
Assay [5] shares this target. Kind of assay: qHTS assay to identify small molecule antagonists of the glucocorticoid receptor (GR) signaling pathway (AID 720692; active = well fitted inhibition curve with a large enough effect in the signal ratio in the repeat runs, not every such curve was filed as active; the % refers to the signal ratio). Conditions: GR-bla HeLa, beta-lactamase FRET ratio, dexamethasone-stimulated, 18 h; at 58.5 µM (top of the series) unless noted.
A short description of assay [6]: qHTS assay to identify small molecule antagonists of the glucocorticoid receptor (GR) signaling pathway - cell viability counter screen (AID 720693). Note: nearly all actives have a fitted effect of over 55% in size.
Assay [7] can be described thus: qHTS assay for identifying genotoxic compounds that show differential cytotoxicity against isogenic chicken DT40 cell lines with known DNA damage response pathways - wild type cell line (AID 743012). Note: nearly all actives have a fitted effect of over 60% in size. Note: potency is the fitted concentration of half-maximal effect. In outline:
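Quantitative HTS on parental DT40 cells: 40 h compound treatment at 37 C/5% CO2, with viability then determined by CellTiter-Glo luminescence. Values serve as the DNA repair-proficient reference for differential cytotoxicity.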

A short description of assay [8]: qHTS assay for identifying genotoxic compounds that show differential cytotoxicity against isogenic chicken DT40 cell lines with known DNA damage response pathways - Rev3 mutant cell line (AID 743014). Note: nearly all actives have a fitted effect of over 55% in size. Note: potency is the fitted concentration of half-maximal effect.
A short description of assay [9]: qHTS assay to identify small molecule antagonists of the thyroid receptor (TR) signaling pathway - cell viability counter screen (AID 743064). Note: nearly all actives have a fitted effect of over 50% in size. The method in brief:
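Same-well viability check: GH3.TRE-Luc cells stimulated with 1 nM T3 alongside test compound for 23.5 h, followed by CellTiter-Fluor fluorescence.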

Assay [10] concerns thyroid hormone receptor (rat, GH3 cells). Kind of assay: qHTS assay to identify small molecule agonists of the thyroid receptor (TR) signaling pathway (AID 743066; calls by dose curve). Conditions: GH3.TRE-Luc cells, TR agonist luciferase, 24 h; at 83.9 µM (top of the series) unless noted.
Assay [11] deals with Estrogen receptor (Homo sapiens) (UniProt P03372). Put plainly: qHTS assay to identify small molecule antagonists of the estrogen receptor alpha (ER-alpha) signaling pathway (AID 743069; active = well fitted curve in the direction sought with a large enough effect in the signal ratio in the repeat runs, not every such curve was filed as active; the % refers to the signal ratio). In outline:
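HEK293 cells stably carrying an ER-alpha-UAS-bla beta-lactamase reporter were pre-cultured overnight in 2% charcoal-stripped FBS medium. Test compounds in DMSO were added together with 17beta-estradiol for 18 hr at 37C. Read-out was fluorescence after 2 hr with LiveBLAzer B/G FRET substrate at room temperature.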

Assay [12] is described as follows: qHTS assay to identify small molecule antagonists of the estrogen receptor alpha (ER-alpha) signaling pathway - cell viability counter screen (AID 743074; calls by dose curve; note: nearly all actives have a fitted effect of over 45% in size).
For assay [13], the target named is Estrogen receptor (Homo sapiens) (UniProt P03372). Put plainly: qHTS assay to identify small molecule agonists of the estrogen receptor alpha (ER-alpha) signaling pathway (AID 743075; calls by dose curve).
Assay [14] shares this target. Kind of assay: qHTS assay to identify small molecule agonists of the estrogen receptor alpha (ER-alpha) signaling pathway using the BG1 cell line (AID 743079). Note: nearly all actives have a fitted effect of over 20% in size.
Assay [15] is described as follows: qHTS assay to identify small molecule antagonists of the estrogen receptor alpha (ER-alpha) signaling pathway using the BG1 cell line (AID 743080; calls by dose curve;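 note: BG1 cells stimulated with 17beta-estradiol alongside compound; nearly all actives have a fitted effect of over 25% in size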). Conditions: BG1Luc4E2 ERE-luciferase antagonist mode, luminescence; at 70.3 µM (top of the series) unless noted. In outline:
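Seeding, 24 h rest, compound transfer from DMSO, 17beta-estradiol addition, 21.5 h incubation, CellTiter-Fluor (30 min, 37 C), then ONE-Glo (30 min, room temperature): this sequence was run on BG1-Luc-4E2 reporter cells.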

Assay [16] can be described thus: qHTS assay for identifying genotoxic compounds that show differential cytotoxicity against isogenic chicken DT40 cell lines with known DNA damage response pathways - Rad54/Ku70 mutant cell line (AID 743015). Note: nearly all actives have a fitted effect of over 60% in size.
Assay [17] concerns the target Androgen receptor (Homo sapiens) (UniProt P10275). Kind of assay: qHTS assay to identify small molecule antagonists of the androgen receptor (AR) signaling pathway (AID 743035; active = well fitted inhibition curve with a large enough effect in the signal ratio in the repeat runs, not every such curve was filed as active; the % refers to the signal ratio).
The target is the same in assay [18]. Kind of assay: qHTS assay to identify small molecule agonists of the androgen receptor (AR) signaling pathway (AID 743036; active = well fitted activation curve with a large enough effect in the signal ratio in the repeat runs, with a control signal flat, not every such curve was filed as active; the % refers to the signal ratio). Conditions: HEK293 AR-UAS-bla GripTite, beta-lactamase FRET ratio, 16 h; at 62.4 µM (top of the series).
Assay [19] has the same target. Kind of assay: qHTS assay to identify small molecule agonists of the androgen receptor (AR) signaling pathway using the MDA cell line (AID 743040; note: nearly all actives have a fitted effect of over 20% in size). As to conditions: MDA-kb2 AR-luc cells, MMTV luciferase, 16 h; at 70.3 µM (top of the series); stronger effect = higher value.
Assay [20] has the same target. Put plainly: qHTS assay to identify small molecule antagonists of the androgen receptor (AR) signaling pathway using the MDA cell line (AID 743042; note: nearly all actives have a fitted effect of over 55% in size).
The mark [21] stands for this setting: at 91.3 µM (top of the series) unless noted.
% is set by controls: 0 for no effect and ±100 for the full control effect.

Turning to `COP(=S)(Cl)OC`, the fluorescence, % of fluorescent control was inactive: -0.341% in assay [1] (setting [21]) and inactive: -0.108% in assay [3] (setting [21]). The fluorescence, % of fluorescein control in assay [2] (setting [21]) is inactive: -0.155%. Also, the activation in [4] was inactive: -2.06% [at 79.2 µM]; in assay [10], inactive: -1.32% [at 95.2 µM]. For the same molecule, the values for the activity change, negative = inhibition in assay [5] and in [15] were inactive: -28.3% [at 78.9 µM] and inactive: -0.535% [at 95 µM], respectively. The Potency result in assay [6], in assay [7], in assay [9], in [11], in [12] and in assay [13] was “inactive” each time. Besides, the Potency entry in [14] was “inactive”. The Potency in [8] is active: 61.7 µM.
`NC(=O)Nc1ccc([As](=O)(O)O)cc1`: the fluorescence, % of fluorescent control in assay [1] (at 46 µM (top of the series)) was inactive: 0.0208%; in assay [1] (at 91.3 µM (top of the series)), inactive: 0.0803%; in assay [3] (at 46 µM (top of the series)), inactive: -0.0557%; in assay [3] (at 91.3 µM (top of the series)) it was inactive: -0.0068%. Moreover, the fluorescence, % of fluorescein control is inactive: -0.19% in assay [2] (at 46 µM (top of the series)) and inactive: 0.12% in assay [2] (at 91.3 µM (top of the series)). Also, the Potency entry in assay [6], in assay [7], in assay [8], in assay [16], in [17] and in [20] was “inactive” throughout. Also, the Potency result in assay [9] and in [12] was “inactive” throughout. Moreover, the activation is inactive: 4.57% and inactive: 2% in [18]; inactive: 0.299% and inactive: 0.492% in assay [10]. Also, in assay [19], the activity change is inactive: -0.247% and inactive: 1.99%.
For the molecule `Cc1cc([N+](=O)[O-])cc([N+](=O)[O-])c1O`, the fluorescence, % of fluorescent control in assay [1] (setting [21]) was inactive: -0.798% and inactive: -1.1%; in [3] (setting [21]), inactive: -1.17% and inactive: -1.03%. In addition, the fluorescence, % of fluorescein control in [2] (setting [21]) is inactive: -0.104% and inactive: -0.384%. The activation was inactive: -2.48% and inactive: -9.78% in assay [4]; inactive: -6.74% and inactive: -7.65% in assay [10]. Also, the activity change in assay [19] was inactive: -11.2% and inactive: -12.9%.
Regarding `CN(N=O)C(=N)N[N+](=O)[O-]`, the results for the fluorescence, % of fluorescent control in assay [1] (setting [21]) and in assay [3] (setting [21]) were inactive: -0.0049% and inactive: -0.0141%, respectively. In addition, in assay [2] (setting [21]), the fluorescence, % of fluorescein control was inactive: -0.0048%. Besides, the activation in assay [4] was inactive: -4.74%; in assay [10], inactive: -0.0802%. The activity change, negative = inhibition in assay [5] was inactive: 5.51%. Further, the Potency entry in assay [6] and in assay [9] was “inactive” each time. Moreover, the Potency in assay [7] was active: 27.1 µM; in [8] it was active: 1.21 µM.
As to `CN(C(=O)Cc1ccc(Cl)c(Cl)c1)[C@H]1CC[C@@]2(CCCO2)C[C@@H]1N1CCCC1`, the fluorescence, % of fluorescent control is inactive: -0.0205% [at 46 µM] in assay [1] (setting [21]) and inactive: -0.0065% [at 46 µM] in [3] (setting [21]). The fluorescence, % of fluorescein control in assay [2] (setting [21]) was inactive: -0.0526% [at 46 µM]. The activation in assay [4] is inactive: -12.8%. Moreover, the Potency in assay [7] is active: 16.8 µM; in assay [8], active: 21.1 µM. Moreover, the activity change in assay [19] is inactive: -11.5%. Moreover, the Potency entry in [11] and in assay [13] was “inactive” in each case.
Regarding `CCOP(=S)(CC)Sc1ccccc1` (centres undefined), the values for the fluorescence, % of fluorescent control in assay [1] (setting [21]) and in assay [3] (setting [21]) were inactive: -0.0767% and inactive: -0.0178%, respectively. Further, in assay [2] (setting [21]), the fluorescence, % of fluorescein control was inactive: -0.0348%. For the same molecule, the activation in assay [4] is inactive: 0.777%; in [10] it was inactive: -2.49%. The Potency entry in assay [6], in assay [7], in assay [8], in [11], in [12] and in [13] was “inactive” each time. Besides, the activity change, negative = inhibition in assay [15] is inactive: 4.35%.
For the molecule `CN(C(=O)Cc1ccccc1)[C@H]1CC[C@@]2(CCCO2)C[C@@H]1N1CCCC1`, the fluorescence, % of fluorescent control in assay [1] (setting [21]) was inactive: 0.579% [at 46 µM]. For the same molecule, the fluorescence, % of fluorescein control in assay [2] (setting [21]) is inactive: 0.491% [at 46 µM]. The activation is inactive: -3.5% in assay [4], inactive: -14.1% in [18] and inactive: -0.914% in [10]. Further, the activity change, negative = inhibition in assay [5] is inactive: -13.1%; in [15], inactive: -10.1%. Moreover, the Potency result in assay [6], in assay [8], in assay [17], in [20], in [11] and in assay [13] was “inactive” in each case. The Potency entry in [14] is “inactive”. Further, in [19], the activity change is inactive: -1.01%.
